Test results published in PubChem BioAssay AID504834 (National Center for Advancing Translational Sciences (NCATS), 2011).
Only a part is listed here, and it is no random draw. Inconclusive results are not listed. Calls of active or inactive are those of the source. The call rests on the fitted dose curve; in most records, active means well fitted inhibition curve with a large enough effect; inconclusive means small, poorly fitted or top-dose-only effect, or another doubt; inactive means no such curve, though single readings can be large or run the other way.

assay: Primary qHTS for delayed death inhibitors of the malarial parasite plastid, 96 hour incubation; details: P. falciparum luciferase reporter growth
Source text: The goal of this screen is to discover new antimalarial compounds that act by inhibiting the development of the apicoplast in the malarial parasite Plasmodium falciparum. The biochemical processes that make this organelle essential for erythrocytic stage parasites are not well understood. However, antibiotics such as azithromycin and tetracycline, which target the apicoplast translational machinery, have a potent antimalarial effect.
We have developed a cell-based assay that measures parasite growth based on the expression of an integrated copy of a firefly luciferase reporter. To detect small molecules that cause this "delayed death" phenotype, erythrocytes infected with the luciferase-expressing parasites were incubated with compounds for either one or two generations, corresponding to 48 and 96 hours, respectively. Compounds that inhibit parasite growth in the second generation, but not the first, should be enriched in antimalarials that target the apicoplast. Growth inhibition is detected by a decrease in luciferase activity. […]
Four microliters of infected erythrocytes (2% hematocrit, 0.05% parasitemia final concentration) in culture medium were dispensed and the plates incubated for 96 hours at 37 C in 5% CO2. Two microliters of luciferase detection reagent was added and luminescence was detected by a ViewLux (PerkinElmer) reader.
Potency means the concentration at half of the fitted maximal effect.

**Q.** With `COc1ccc(C[C@H](C)NC[C@@H](O)c2ccc(O)c(NC=O)c2)cc1` as the compound, how does the Potency read?
**A.** The Potency was active: 10.7 µM.
